Results taken from PubChem BioAssay AID602405 (Broad Institute, 2012).
This is a selection; strong and weak results do not stand in their true shares. Some of these compounds have results that are not shown, active ones among them. The source made the active and inactive calls. Cut-off read from the data, not from the text of the source: active = inhibition above about 16% (passing the limit was not always enough); inconclusive = no clear call, values can overlap the other calls; inactive = below that.

Tested on: UDP-N-acetylbacillosamine N-acetyltransferase PglD (Campylobacter jejuni)
Assay: blockers of PglD enzyme activity – biochemical, DTNB colorimetric, single point, primary screen (AID 602405)
Conditions: purified PglD enzyme, DTNB colorimetric CoA detection; at 12.5 µM; active compounds read high

| Structure (SMILES) | inhibition |
| --- | --- |
| COc1ccc(Br)c(C(=O)NCC2(N3CCCCC3)CCCCC2)c1 | inactive: 6.88% |
| C=C(C)C#CC(O)(C(=O)OC1CCN(C)CC1)c1ccccc1 (centres undefined) | inactive: 1.31% |
| CN(C)c1cccc(C(=O)NCC2(N(C)C)CCCCC2)c1 | inactive: -9.9% |
| O=C(OCCN1CCCC1)C(O)(c1ccccc1)c1ccccc1 | inactive: 3.48% |
| CC(C)Oc1ccc(C(=O)NCC2(N(C)C)CCCCC2)cc1 | inactive: 4.81% |
| CN(C)C1(CNC(=O)c2ccc(Br)cc2)CCCCC1 | inactive: 1.87% |
| COc1cc(C(=O)NCC2(N(C)C)CCCCC2)c([N+](=O)[O-])cc1OC | inactive: -6.23% |
| COc1ccc(Cl)cc1C(=O)NCC1(N(C)C)CCCCC1 | inactive: 2.63% |
| O=C(NCC1(N2CCCCC2)CCCCC1)c1cccc(Cl)c1 | inactive: 2.55% |
| CN(C)c1ccc(C(=O)NCC2(N(C)C)CCCCC2)cc1 | inactive: 3.12% |
| O=C(NCC1(N2CCCCC2)CCCCC1)c1cc(F)c(F)cc1Cl | inactive: 0.113% |
| O=C(NCC1(N2CCCCC2)CCCCC1)c1cccc(Br)c1 | inactive: 0.035% |
| Cc1cc(C(=O)NCC2(N3CCCCC3)CCCCC2)ccc1[N+](=O)[O-] | inactive: -1.67% |
| COc1ccc(C(=O)NCC2(N(C)C)CCCCC2)cc1 | inactive: 6.08% |
| CN1[C@@H]2CC[C@H]1CC(OC(=O)C(O)(c1ccccc1)c1ccccc1)C2 (some centres undefined) | inactive: 3.49% |
| CC(C)N1C(=O)CC2(CCN(CCOC(=O)C(O)(c3ccccc3)c3ccccc3)CC2)C1=O | inactive: 2.49% |
| COc1cc(SC)ccc1C(=O)NCC1(N(C)C)CCCCC1 | inactive: -5.67% |
| CCN(CC)CC(C)C(C)OC(=O)C(O)(c1ccccc1)c1ccccc1 (centres undefined) | inactive: 1.27% |
| Cc1ccc(C(=O)NCC2(N3CCCCC3)CCCCC2)cc1 | inactive: -0.127% |
